Measured values taken from publication PMC8692891, “Native CGRP Neuropeptide and Its Stable Analogue SAX, But Not CGRP Peptide Fragments, Inhibit Mucosal HIV-1 Transmission” (Frontiers in Immunology, 2021).

Assays:
[1] = Penetration of biotinylated CGRP into penile fossa navicularis tissue explants; set-up: species or system human; conditions: 500 nM or 5 μM added to the apical side for 3 h; histochemistry with streptavidin-HRP; n = 3 tissues
Experimental: Polarized penile fossa navicularis tissue explants were prepared as we previously described ([21]), and exposed for 3 h to 500 nM or 5 μM biotinylated CGRP in 100 μl RPMI 1640 added to the apical side. After incubation, tissue penetration of biotinylated CGRP was examined by histochemistry of 4 μm paraffin sections as we described ([21]), using HRP-coupled streptavidin (Vector), followed by the red 3-amino-9-ethylcarbazole (AEC) HRP substrate (Dako) and counterstaining with hematoxylin. Images were acquired with an Olympus BX63F microscope using MetaMorph (Molecular Devices) and analyzed with ImageJ software.
Figure 6 CGRP and SAX inhibit mucosal HIV-1 transmission in human mucosal tissues ex-vivo. […] Images are representative of n = 3 tissues; broken lines denote the basement membranes and scale bar = 20 μm; E, epithelium and S, stroma. (B, C) Inner foreskin tissue explants were left untreated or pre-treated with CGRP or SAX (1 μM) for 24 h at 37°C. Explants were next inoculated in a polarized manner with either non-infected or HIV-1-infected PBMCs for 4 h, and immediately digested with dispase/trypsin. In panel (B), shown are representative flow cytometry dot plots of epidermal cell suspensions triple stained for surface expression of CD3, CD8, and CD1a and examined by flow cytometry. […]

MDLCs = assay: MDLC viability after CGRP treatment; type: cell-based, human; conditions: up to 10 μM for 24 h in-vitro
Experimental: First, as CGRP mediates vasodilator-dependent neurogenic inflammation that can result in immune cell recruitment, we topically applied CGRP onto the vagina of normal BALB/c mice for 6 h and examined potential toxicity and immune cells modulation.

[2] = tested on: STAT4 expression in MDLCs; assay: STAT4 Western blot in MDLCs; type: cell-based, human; conditions: n = 4
Experimental: For PBMCs, cells (2 × 10^6/sample) were activated with PHA (5 μg/ml) + IL2 (100 U/ml) for 48 h at 37°C, serum-starved overnight, and stimulated for 30 min at 37°C with either IL12 (10 ng/ml; R&D systems) or interferon alpha (IFNα, 5 × 10^4 U/ml; pbl Assay Science). For MDLCs, cells (2 × 10^6/sample) were re-suspended in complete RPMI medium without cytokines and rested overnight at 37°C. MDLCs were next treated for 24 h at 37°C with CGRP (0.1 μM), SAX (0.1 μM), CGRP1–8 (10 μM), or lipopolysaccharide (LPS, 10 μg/ml). The CGRP receptor antagonist BIBN4096 (1 μM) was added 15 min before agonists. The cells were then washed and stimulated for 30 min at 37°C with combination of IL12 + IFNα at the concentrations indicated above. […] Protein contents in cell lysates were quantified using the BCA kit (Thermo Fisher) according to the manufacturer’s instructions, and 20 μg proteins were mixed with loading buffer (100 mM Tris pH 7.2, 5% β-mercaptoethanol, 12% glycerol, 5 mM EDTA, 5% SDS, 0.01% bromophenol blue), heated for 5 min at 95°C, run over a 10% SDS-PAGE, and transferred onto nitrocellulose membranes. […] Images were acquired with the Fusion FX camera platform (Vilber Lournmat) and protein expression was quantified with ImageJ software (NIH). […]

[3] = tested on: normal female BALB/c mice; assay: Intravaginal CGRP in normal BALB/c mice: toxicity and immune cells; type: in vivo, mouse
Experimental: CGRP (10 nM, 100 nM or 1 μM) was diluted in 30 μl sterile phosphate-buffered saline (PBS), alone or in combination with 1% hydrocortisone, and applied intravaginally for 6 h in normal female BALB/c mice (10 weeks old, 25–30 g, synchronized in estrous cycle). Spleen, lymph nodes, gut, liver, kidneys, and female reproductive system were then collected, and hematoxylin and eosin stained 3 μm paraffin sections were examined for histopathological analysis. Selected slides were stained after antigen retrieval with monoclonal Abs (Bio-Rd), including rat-anti-human CD3, rat-anti-mouse B220/CD45R (clone RA3-6B2), and rat-anti-mouse F4/80 (clone CI:A31), followed by rat on rodent horseradish peroxidase (HRP)-polymer, 3,3’-diaminobenzidine (DAB) as chromogen (Biocare Medical) and counterstaining with hematoxylin. Images were acquired with the AxioCam HRc using the AxioVision System SE64 (Zeiss).
Figure 1 CGRP limits mucosal HIV-1 transmission in-vivo. (A) CGRP (1 μM) or PBS were topically applied intravaginally in normal female BALB/c mice (n = 3 animals per group). Vaginal tissue sections were examined by immunohistochemistry for the presence of CD3+ T-cells, B220+ B cells and F4/80+ macrophages. Shown are mean ± SEM cell densities expressed as cells/mm^2 (of n = 3 independent experiments) in either the vaginal epithelium or stroma. (B) Representative image of the vaginal tissue of humanized BLT mice, showing expression of human langerin (arrowheads) in the epithelium; broken line denotes the basement membrane and scale bar = 20 μm. (C) Experimental schedule for preparing humanized female BLT mice, intravaginally applying CGRP or PBS followed by vaginal challenge with high-dose HIV-1 JRCSF, and subsequent blood sampling for measurement of plasma viral loads and CD4+ T-cells counts. (D, E) Shown are mean ± SEM (n = 5 BLT mice per group) of plasma viral loads (HIV-1 RNA copies/ml) or CD4+ T-cells percentages (fold). *p < 0.0500, **p < 0.0050, ***p < 0.0005; two-sided Student’s t-test.

Substance | Mucosal tissue penetration [1] | Cell viability of MDLCs (MDLCs) | Total STAT4 expression ([2]; MDLCs treated 24 h, CGRP 0.1 μM, SAX 0.1 μM, CGRP1–8 10 μM, LPS 10 μg/ml, normalized to beta actin) | Phosphorylation of induced STAT4 (pSTAT4) upon cytokine stimulation ([2]; after 24 h agonist treatment, 30 min IL12 + IFNα) | Inflammation ([3]; 10 nM, 100 nM or 1 μM topically on the vagina for 6 h) | Signs of toxicity ([3]; 10 nM, 100 nM or 1 μM topically on the vagina for 6 h, histopathology) | Distribution and/or density of T cells, B cells and macrophages in vaginal epithelium and stroma ([3]; 1 μM intravaginally, immunohistochemistry, n = 3 animals per group)
biotinylated CGRP: biotinylated CGRP (AnaSpec) | readily penetrated the epithelium, but not the stroma |  |  |  |  |  | 
calcitonin gene-related peptide [CGRP] |  | did not affect cell viability | significantly increased | could be readily phosphorylated | did not induce overt inflammation | did not induce signs of toxicity | did not modify
